Tested on: Trypanosoma brucei rhodesiense STIB 900
Assay: In vitro activity against T. brucei rhodesiense bloodstream forms (Alamar blue)
Format: cell-based
Conditions: ratio of cytotoxic IC50 (L6) over IC50 against Tbr
Protocol: Trypanosoma brucei rhodesiense and cytotoxicity against L6 cells. Minimum Essential Medium with Earle’s salts (50 µL) supplemented with 0.2 mM 2-mercapto-ethanol, 1 mM Na-pyruvate and 15% heat-inactivated horse serum was added to each well of a 96-well microtiter plate. […] Then 10^4 bloodstream forms of Trypanosoma brucei rhodesiense STIB 900 in 50 µL of medium were added to each well and the plate incubated at 37°C under a 5% CO2 atmosphere for 72 hours. […] The plate was then read in a Spectramax Gemini XS microplate fluorometer (Molecular Devices Corporation, Sunnyvale, CA, USA) using an excitation wavelength of 536 nm and emission wavelength of 588 nm. Fluorescence development was measured and expressed as percentage of the control. Data were transferred into the graphic programme Softmax Pro (Molecular Devices) which calculated IC50 values. Cytotoxicity was assessed using a similar protocol and rat skeletal myoblasts (L6 cells). […] All following steps were according to the T. b. rhodesiense protocol.

**Q.** How did the “selectivity index (SI) with respect to Tbr” value turn out when `C=C1C(=O)O[C@@H]2C[C@@H](C)[C@@H]3C=CC(=O)[C@@]3(C)[C@@H](O)[C@H]12` [Compound 1, helenalin] was run?
**A.** Its value is 19.

**Q.** What about the “selectivity index (SI) with respect to Tbr” value (listed as helenalin) of the same compound?
**A.** Its value is “about 10”.
